Literature values, collected in patent US20090123564A1, “NOVEL COMPOSITIONS FOR HAIR DISORDERS AND PROCESS OF PREPARATION THEREOF” (priority 2006, published 2009).

Tested on: human carcinoma nasopharynx cells
Settings: cited from earlier work

## vernodaline
  IC50, cytotoxic effects: 1.8 µg/mL

## vernomygdine
  IC50, cytotoxic effects: 1.5 µg/mL
